Values quoted from earlier work as cited in US8512747B2.
Only a part of the results on these compounds is given; other tests are left out.

Settings: transbucchal lozenge

SMILES: CCC(=O)N(c1ccccc1)C1CCN(CCc2ccccc2)CC1
- time of peak plasma concentrations: around 20 minutes
